Results as given in patent US4032534A, “Certain 2-(2-thioethyl)thiazolidine-4-carboxylic acids” (Ferlus-Chimie S.A., priority 1973, dated 1977).

Assay: in vivo
Conditions: mouse, po

## CCOC(=O)CSCCC1NC(C(=O)O)CS1 (stereo not shown) [Compound No. 8, 2-[(Ethoxycarbonylmethylthio)-ethyl] thiazolidine 4-carboxylate of diisopropylamine]
  LD50: 4000 mg/kg
